Results as given in US20180360100A1, “Unexpectedly Enhanced Pigments Compositions and Processes” (SCIENTIFIC HOLDINGS, LLC, priority 2017, published 2018).

Test: Solubilities of pigments in diluents, terpenes and cannabinoids
Conditions: in OBP (dipropylene glycol), nexus, terpenes, cannabinoids
From the text: Solubilities of Pigments. The present disclosure encompasses solubility embodiments.

## Curcumins
  solubility of pigment: soluble at necessary levels for full pigmentation of obp, nexus, and terpenes
